Target: T1, PPARα (Homo sapiens, UniProt Q07869)
T1 sequence (Q07869 1-468): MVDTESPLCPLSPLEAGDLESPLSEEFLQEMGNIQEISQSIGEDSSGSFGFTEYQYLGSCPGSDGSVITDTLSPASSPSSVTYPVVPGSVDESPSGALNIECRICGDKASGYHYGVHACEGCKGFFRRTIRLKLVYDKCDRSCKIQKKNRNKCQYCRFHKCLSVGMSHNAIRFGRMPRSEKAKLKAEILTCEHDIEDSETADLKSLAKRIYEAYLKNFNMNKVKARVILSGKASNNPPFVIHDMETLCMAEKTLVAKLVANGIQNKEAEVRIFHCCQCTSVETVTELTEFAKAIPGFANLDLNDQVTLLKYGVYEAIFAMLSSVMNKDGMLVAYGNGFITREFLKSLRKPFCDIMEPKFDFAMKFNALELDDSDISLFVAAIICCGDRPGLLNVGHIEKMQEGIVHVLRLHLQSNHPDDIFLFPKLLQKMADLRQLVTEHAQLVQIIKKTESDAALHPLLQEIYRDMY
Assay: PPARα coactivator recruitment

Row | SMILES | agonist activity at PPARα
1 | [2H][C@@]1(Cc2ccc(OCCc3ccc(CC)cn3)cc2)SC(=O)NC1=O [d‐S‐pio, deuterated (S)‐pioglitazone] | Neither pioglitazone, PXL065, nor d‐S‐pio showed binding to PPARα or agonist activity at PPARα or PPARδ
2 | [2H][C@]1(Cc2ccc(OCCc3ccc(CC)cn3)cc2)SC(=O)NC1=O [PXL065, deuterated (R)‐pioglitazone] | Neither pioglitazone, PXL065, nor d‐S‐pio showed binding to PPARα or agonist activity at PPARα or PPARδ
